Results as given in PubChem BioAssay AID652115 (Broad Institute, 2013).
The list shows a part of the results, in another mix than the full data. Some results for these compounds are left out of this collection, so the calls shown say nothing about other tests. Activity calls are given as the source filed them. Rule as the data show it: active = inhibition above about 15%; inconclusive = no clear call, values can overlap the other calls; inactive = below that.

By UniProt entry, the sequences of proteins in these tests, tags left out.
UniProt Q9NXA8, whole entry: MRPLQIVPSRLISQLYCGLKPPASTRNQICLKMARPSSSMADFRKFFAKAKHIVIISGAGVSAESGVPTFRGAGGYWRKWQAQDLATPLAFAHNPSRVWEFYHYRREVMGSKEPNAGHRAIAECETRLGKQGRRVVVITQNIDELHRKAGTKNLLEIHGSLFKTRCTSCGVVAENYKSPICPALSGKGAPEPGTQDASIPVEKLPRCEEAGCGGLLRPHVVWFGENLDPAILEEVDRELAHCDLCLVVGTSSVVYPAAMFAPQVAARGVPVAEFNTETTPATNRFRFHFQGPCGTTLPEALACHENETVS

biological target: NAD-dependent protein deacylase sirtuin-5, mitochondrial (Homo sapiens) (UniProt Q9NXA8); experiment: blockers of sirtuin-5 deacylase activity – biochemical, fluorescence imaging, single point, set 5, primary screen (AID 652115); settings: Purified SirT5, succinyl-peptide AMC, trypsin-coupled fluorescence; at 15 µM; active compounds read high

Row | SMILES | inhibition
1 | Cc1ccc(C(=O)NCC2(N3CCCCC3)CCCCC2)cc1 | inactive: -4.08%
2 | CCN(CC)CC(C)C(C)OC(=O)C(O)(c1ccccc1)c1ccccc1 (stereo not given) | inactive: 2.76%
3 | COc1cc(SC)ccc1C(=O)NCC1(N(C)C)CCCCC1 | inactive: -4.77%
4 | CN1[C@@H]2CC[C@H]1CC(OC(=O)C(O)(c1ccccc1)c1ccccc1)C2 (stereo not given in full) | inactive: -2.82%
5 | O=C(NCC1(N2CCCCC2)CCCCC1)c1cc([N+](=O)[O-])ccc1Cl | inactive: -0.446%
6 | COc1ccc(C(=O)NCC2(N(C)C)CCCCC2)cc1 | inactive: 0.384%
7 | Cc1cc(C(=O)NCC2(N3CCCCC3)CCCCC2)ccc1[N+](=O)[O-] | inactive: -0.932%
8 | O=C(NCC1(N2CCCCC2)CCCCC1)c1cccc(Br)c1 | inactive: 2.74%
9 | O=C(NCC1(N2CCCCC2)CCCCC1)c1cc(F)c(F)cc1Cl | inactive: -13.8%
10 | Cc1ccccc1C(=O)NCC1(N2CCCCC2)CCCCC1 | inactive: -1.98%
11 | CN(C)c1ccc(C(=O)NCC2(N(C)C)CCCCC2)cc1 | inactive: -0.336%
12 | CN(C)C1CCCC1OC(=O)C(O)(c1ccccc1)c1ccccc1 (stereo not given) | inactive: 0.926%
13 | O=C(NCC1(N2CCCCC2)CCCCC1)c1cccc(Cl)c1 | inactive: 1.04%
14 | COc1cccc(C(=O)NCC2(N3CCCCC3)CCCCC2)c1 | inactive: 10.4%
15 | COc1ccc(Cl)cc1C(=O)NCC1(N(C)C)CCCCC1 | inactive: 0.491%
16 | COc1cc(C(=O)NCC2(N(C)C)CCCCC2)c([N+](=O)[O-])cc1OC | inactive: 0.837%
17 | CN(C)C1(CNC(=O)c2ccc(Br)cc2)CCCCC1 | inactive: -2.16%
18 | CC(C)Oc1ccc(C(=O)NCC2(N(C)C)CCCCC2)cc1 | inactive: -2.59%
19 | O=C(OCCN1CCCC1)C(O)(c1ccccc1)c1ccccc1 | inactive: -5.33%
20 | COc1ccc(Br)c(C(=O)NCC2(N3CCCCC3)CCCCC2)c1 | inactive: -1.58%
